Here are results for three compounds from BindingDB's records for doi:10.1111/j.1747-0285.2007.00514.x (University of Maryland, 2007).

For this assay, the target named is HIV-1 protease (Human immunodeficiency virus, UniProt O90783). In words: Inhibition Assay. An excerpt: Inhibition assay using HIV protease and Sulfonamide compounds.
For the compound `Cc1cccc(C)c1OCC(=O)N[C@@H](Cc1ccccc1)[C@@H](O)C[C@H](Cc1ccccc1)NC(=O)[C@H](C(C)C)N1CCCNC1=O` [(2S)-N-[(2S,4S,5S)-5-[2-(2,6-dimethylphenoxy)acetamido]-4-hydroxy-1,6-diphenylhexan-2-yl]-3-methyl-2-(2-oxo-1,3-diazinan-1-yl)butanamide], the Ki is 0.005 nM.

With `CNC(=O)CCC(=O)N[C@@H](Cc1ccccc1)[C@H](O)CN(CC1CC1)S(=O)(=O)c1cccc(OC)c1` [CARB-AD37], the Ki came out at 24 nM.

Turning to `CNC(=O)CCC(=O)N[C@@H](Cc1ccccc1)[C@H](O)CN(CC1CC1)S(=O)(=O)c1ccco1` [CARB-KB45], affinity was put at a Ki of 58 nM.

As usually defined, the Ki is the equilibrium dissociation constant of an inhibitor or competing ligand from its target. The low end stands for higher affinity, the high end for lower affinity.
